Bioassay records: PubChem, Broad Institute
A selection: hits, their analogues and other compounds. The true share with any hit is near 2.8%.
UUG fidelity: modulators of start codon recognition fidelity in yeast; AID 602363; activity score, % at 18.7 µM; S. cerevisiae UUG-firefly luciferase reporter, luminescence/redox ratio; actives 0.13% (n = 350,000);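 active = replicate mean at a twofold rise or more, about +100% in these data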;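 note: firefly luciferase made from a UUG start codon reports start codon fidelity; reporter light over untreated wells divided by growth signal over untreated wells; some hits fall short of that in this replicate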
miR122 inh: miR-122 Renilla sensor signal increase in Huh7, primary screen, miR-122 inhibitor project, cell-based, single point, plate reader. Huh7 miR-122 Renilla luciferase sensor, 48 h; neutral wells = 0, positive control = 100. activation (reporter increase), % at 12.5 µM. hit rate 0.3% among 340,000. AID 602342, 2012;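 active = mean replicate activation score at least 90 and every replicate individually at or above 90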;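 also: higher luciferase means less miR-122 activity so hits act as miR-122 inhibitors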
MITF TRPM1 HTS: activators of MITF-driven TRPM1 promoter reporter, primary screen, cell-based, SK-MEL-5, luciferase, single point | SK-MEL-5 TRPM1-promoter luciferase, 24 h; % of positive control, neutral wells = 0 | activation, % at 12.5 µM | hit rate 0.75% among 300,000 | AID 588334, 2011;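 active = mean activation of at least 80% with every replicate also reaching 80%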
Wnt act: Wnt/beta-catenin pathway activators, primary screen, cell-based, plate reader, single point | Wnt/beta-catenin reporter cell assay, activator | activation, % at 9.35 µM | AID 743398, 2014 | hit rate 1.2% among 300,000; in the data active = activation above about 30%, passing the limit was not always enough
PglD inh: C. jejuni PglD acetyltransferase inhibitors, primary screen, biochemical, DTNB colorimetric, single point | UDP-N-acetylbacillosamine N-acetyltransferase PglD (Campylobacter jejuni) | purified PglD enzyme, DTNB colorimetric CoA detection | inhibition, % at 12.5 µM | hit rate 0.098% among 360,000; in the data active = inhibition above about 16%, passing the limit was not always enough
esBAF inh: Bmi1 luciferase reporter increase in mESCs, primary screen, esBAF inhibitor project, mouse ES cells, Bmi1 luciferase knock-in, single point | hit rate 2% among 350,000 | 24 h; 100% = twice the neutral-well signal | reporter increase, % at 12.5 µM; in the data active = activation above about 40%;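 also: a rise in the Bmi1 reporter signal indicates esBAF inhibition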
Each line names hits and unclear results; the compound was inactive in the other large screens.

Clc1ccc(-n2nnc(-c3cccnc3Cl)n2)cn1	MITF TRPM1 HTS 126, Wnt act 41, esBAF inh 52
CCC(C)c1ccc(N(C(=O)c2ccco2)C(C(=O)NC2CCCC2)c2cccnc2)cc1 (stereo not drawn)	esBAF inh 86 (no result: UUG fidelity, PglD inh)
CC(C)c1ccc(N(C(=O)c2ccco2)C(C(=O)NC2CCCC2)c2ccncc2)cc1 (stereo not drawn)	esBAF inh 47
CCc1ccc(N(C(=O)c2ccco2)C(C(=O)NC2CCCC2)c2cccnc2)cc1 (stereo not drawn)	none (no result: UUG fidelity, PglD inh)
CC(=O)c1ccc(N=Nc2ccc(N)cc2)cc1	Wnt act 34
CC(C)c1cc(C(=O)Nc2cc(Br)ccc2O)no1	esBAF inh 78
CC(C)c1cc(C(=O)NCc2ccco2)no1	none
CC(C)c1cc(C(=O)NCCc2ccccc2)no1	Wnt act 39 (no result: UUG fidelity, PglD inh)
CC(C)c1cc(C(=O)Nc2cccc(Cl)c2)no1	MITF TRPM1 HTS 90 (no result: Wnt act)
O=C(Nc1cccc(Cl)c1)c1cnc[nH]1	esBAF inh 58
CO[C@H]1CN(C)C(=O)c2cc(NC(C)=O)ccc2OC[C@H](C)N(C(=O)C2CCOCC2)C[C@H]1C	none (no result: miR122 inh, MITF TRPM1 HTS, Wnt act)
CC(C)c1cc(C(=O)Nc2cc(Cl)ccc2O)no1	esBAF inh 55 (no result: Wnt act)
Cc1noc(C(=O)Nc2cc(Cl)ccc2O)c1Cl	none (no result: miR122 inh)
C[C@@H]1CN([C@H](C)CO)C(=O)Cc2cc(NC(=O)CCN3CCOCC3)ccc2O[C@@H]1CN(C)C(=O)Nc1ccc2c(c1)OCO2	none (no result: MITF TRPM1 HTS, Wnt act)
CC(=O)N1C[C@@H]2[C@H](c3ccccc31)[C@H](CO)N2C(=O)CC1CC1	none (no result: MITF TRPM1 HTS, Wnt act)
NC(c1ccc(F)c(F)c1)c1nc(-c2ccc3ccccc3c2)cs1 (stereo not drawn)	none (no result: MITF TRPM1 HTS)
OC(c1ccc(F)cc1)c1nc(-c2cnc3ccccc3c2)cs1 (stereo not drawn)	esBAF inh 48 (no result: MITF TRPM1 HTS)
OC(c1ccc(F)cc1)c1nc(-c2cc3ccccc3o2)cs1 (stereo not drawn)	esBAF inh 70 (no result: MITF TRPM1 HTS)
COc1ccc(C(O)c2nc(-c3cnc4ccccc4c3)cs2)cc1 (stereo not drawn)	esBAF inh 49 (no result: MITF TRPM1 HTS)
CC(=O)NC(c1cccc(F)c1)c1nc(-c2cc3ccccc3o2)cs1 (stereo not drawn)	none (no result: MITF TRPM1 HTS)
OC(c1ccc(F)c(F)c1)c1nc(-c2ccc3ccccc3c2)cs1 (stereo not drawn)	esBAF inh 68 (no result: MITF TRPM1 HTS)
OC(c1cccc(Cl)c1)c1nc(-c2cnc3ccccc3c2)cs1 (stereo not drawn)	none (no result: MITF TRPM1 HTS)
CCC(=O)N(C)C[C@@H]1Oc2cc(C#CC(C)C)ccc2S(=O)(=O)N([C@H](C)CO)C[C@H]1C	none (no result: MITF TRPM1 HTS, Wnt act)
Cc1noc(C)c1NC(=O)Nc1ccc2c(c1)C(=O)N([C@H](C)CO)C[C@H](C)[C@H](CN(C)C(=O)Nc1ccc(F)cc1)OCCCC[C@H](C)O2	none (no result: MITF TRPM1 HTS, Wnt act)
CN(C)C(=O)C[C@@H]1C=C[C@H](NC(=O)C2CCC2)[C@H](CO)O1	none (no result: miR122 inh, MITF TRPM1 HTS, Wnt act)
Cc1ccc(S(=O)(=O)N(C)C[C@H]2OCCCC[C@H](C)Oc3ccc(NC(=O)c4ccccc4)cc3C(=O)N([C@@H](C)CO)C[C@@H]2C)cc1	none (no result: MITF TRPM1 HTS, Wnt act)
CC(=O)c1ccc2c(c1)C1C=CCC1C(c1ccncc1)N2 (stereo not drawn)	esBAF inh 54 (no result: Wnt act)
CC(=O)c1ccc2c(c1)C1C=CCC1C(C(=O)O)N2 (stereo not drawn)	none (no result: UUG fidelity, PglD inh, esBAF inh)
CCCc1cn(CC[C@@H]2CC[C@@H](NC(=O)Nc3ccc4c(c3)OCO4)[C@@H](CO)O2)nn1	none (no result: miR122 inh, MITF TRPM1 HTS, Wnt act)
O=C(c1cc(-c2ccccc2O)on1)N1CCOCC1	MITF TRPM1 HTS 96, Wnt act 35, esBAF inh 51
O=C(c1cc(-c2ccc(O)cc2)on1)N1CCCC1	none
O=C(c1cc(-c2ccccc2O)on1)N1CCCCCC1	MITF TRPM1 HTS 125, esBAF inh 60
O=C(c1cc(-c2ccc(Cl)cc2Cl)on1)N1CCOCC1	none (no result: miR122 inh)
O=C(NCC[C@@H]1CC[C@H](NC(=O)C2CCCCC2)[C@@H](CO)O1)c1ccc(F)cc1	none (no result: miR122 inh, MITF TRPM1 HTS, Wnt act)
O=C1COc2ccc(C(=O)COC(=O)c3ccccc3[N+](=O)[O-])cc2N1	esBAF inh 77 (no result: miR122 inh)
Cc1cccc(NC(=O)N2CCCCCC2)c1	esBAF inh 43
Cc1ccc(NC(=O)N2CCCCCC2)cc1C	esBAF inh 52
O=C(Nc1cnc2ccccc2c1)N1CCCCC1	MITF TRPM1 HTS 94 (no result: UUG fidelity, Wnt act, PglD inh, esBAF inh)
NC(=S)Nc1cnc2ccccc2c1	none (no result: miR122 inh, Wnt act)
C[C@H](CO)N1C[C@H](C)[C@H](CN(C)CC2CCCCC2)Oc2ccc(NC(=O)Nc3ccc(C(F)(F)F)cc3)cc2CC1=O	none (no result: MITF TRPM1 HTS, Wnt act)
C/C(=N/O)c1no[n+]([O-])c1/C(C)=N\O	Wnt act 38 (no result: MITF TRPM1 HTS, esBAF inh)
C[C@H](CO)N1C[C@H](C)[C@H](CN(C)S(=O)(=O)c2ccsc2)OCc2ccccc2-c2ccccc2C1=O	none (no result: UUG fidelity, miR122 inh, MITF TRPM1 HTS, Wnt act)
COc1ccc(S(=O)(=O)NCCc2c(C)nn(C)c2Oc2ccccc2)cc1	miR122 inh 238
CC(=O)Nc1cccc(-c2csc(C(O)c3ccccc3)n2)c1 (stereo not drawn)	esBAF inh 49 (no result: MITF TRPM1 HTS)
COCc1cccc(-c2csc(C(O)c3cccc(OC)c3)n2)c1 (stereo not drawn)	none (no result: MITF TRPM1 HTS)
OC(c1ccccc1)c1nc(-c2ccc(Cl)cc2)cs1 (stereo not drawn)	none (no result: MITF TRPM1 HTS)
CC(=O)Nc1cccc(-c2csc(C(O)c3ccc(F)cc3)n2)c1 (stereo not drawn)	none (no result: MITF TRPM1 HTS)
OC(c1ccccc1)c1nc(-c2ccccc2)cs1 (stereo not drawn)	esBAF inh 52 (no result: miR122 inh, MITF TRPM1 HTS)
COCc1cccc(-c2csc(C(O)c3ccccc3)n2)c1 (stereo not drawn)	esBAF inh 53 (no result: MITF TRPM1 HTS)
O=C(O)c1cccc(-c2csc(C(O)c3cccc(Cl)c3)n2)c1 (stereo not drawn)	esBAF inh 48 (no result: MITF TRPM1 HTS)
C[C@@H]1CCCCO[C@H](CN(C)C(=O)CCC(F)(F)F)[C@@H](C)CN([C@H](C)CO)C(=O)c2cc(NS(=O)(=O)c3ccccc3)ccc2O1	none (no result: MITF TRPM1 HTS, Wnt act)
CC(C)NC(=O)N1C[C@H]2[C@@H](c3ccccc31)[C@H](CO)N2C(=O)Nc1cccc(F)c1	none (no result: MITF TRPM1 HTS, Wnt act)
O=C(C[C@@H]1CC[C@H]2[C@@H](COC[C@H](O)CN2C(=O)c2ccncc2)O1)NC1CCC1	none (no result: UUG fidelity, MITF TRPM1 HTS, Wnt act)
C[C@@H]1CN([C@@H](C)CO)C(=O)c2cc(NS(=O)(=O)c3cn(C)cn3)ccc2O[C@@H](C)CCCCO[C@@H]1CN(C)C(=O)NC1CCCCC1	none (no result: MITF TRPM1 HTS, Wnt act)
C/C(CC(=O)Nc1ccc2c(c1)OCCO2)=N\NC(=O)c1ccccc1F	none
